Sampled rows, rich in hits. Any-hit rate of the full collection: about 3.7%.
Nrf2 block: inhibitors of Nrf2 signaling; A549 ARE-Fluc reporter, luciferase luminescence, 18-24 h; Potency, µM (top dose mostly 46 µM), inactives show at the top dose activity change, negative = inhibition, most hits filed as inhibitors; hit rate 2.1% among 360,000; AID 504444; note: potency is the fitted concentration of half-maximal effect; % is set by controls: 0 for no effect and ±100 for the full control effect; nearly all actives have a fitted effect of over 60% in size
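A549 ARE_Fluc cells, 5000/well, 5% FBS OPTI-MEM; compounds in dose-response, 18-24 h at 37 °C/5% CO2; CellTiter-Fluor viability read (Ex 405/Em 525), then BugLite luciferase luminescence = Nrf2 activity.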
ClpP mod: qHTS Assay for Activators of ClpP | hit rate 1.9% among 340,000 | purified B. subtilis ClpP, FRET peptide cleavage, 20 min | ATP-dependent Clp protease proteolytic subunit (Bacillus subtilis (strain 168)), P80244 | Potency, µM (top dose mostly 57.5 µM), for the others: at the highest dose activity change, negative = active; active = well fitted falling curve with a large enough effect; inconclusive = small, poorly fitted or top-dose-only effect; inactive = no such curve, though single readings can be large or run the other way; note: potency is the fitted concentration of half-maximal effect; the source files actives as falling curves though it sought activators and does not explain the sign; nearly all actives have a fitted effect of over 65% in size
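ClpP 10 microg/mL final, pH 8 Tris/KCl buffer with BSA, glycerol, Tween-20; compound pinned in; FRET-FV substrate; RT 20 min; Ex320/Em430; ΔFRET vs ADEP 5.8 microM, DMSO, no enzyme.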
miR-21 reporter: raises the signal of a miR-21 reporter | HeLa miR-21 FLuc reporter, luciferase, 48 h | Potency, µM (doses to about 38.3 µM), for the others: at the highest dose reporter change, positive = more light | 340,000 tested, under 10 active | AID 2288; active = well fitted rising curve with a large enough effect; inconclusive = small, poorly fitted or top-dose-only effect; inactive = no such curve, though single readings can be large or run the other way;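 also: % of control where 0% means no effect; miR-21 action dims this reporter so a rising signal means less miR-21 action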
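Compounds were titrated across several concentrations (up to approximately 40 uM) and incubated 48 hours with HeLa miR-21-FLuc reporter cells (miR-21 target sequence downstream of FLuc, endogenous miR-21). Readout was firefly luciferase luminescence after lytic detection reagent.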
IL2 activator: IL-2 activation. IL-2 activation reporter assay, cell-based qHTS; stimulated with anti-CD3/CD4/CD28 beads; in transgenic mouse T cells. AID 652025. hit rate 0.065% among 360,000. activation, % (series mostly up to about 46 µM); in the data active = activation above about 50%; inconclusive = mostly about 30% to 49%; note: 0% is about no effect
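EGFP and DsRed fluorescence is measured by plate cytometry in unstimulated transgenic mouse T cells exposed to compound for 60 minutes, then stimulated 18 hours at 37 degrees C with anti-CD3/anti-CD4 beads plus anti-CD28.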
Nrf2 activator: activators of Nrf2 (ARE) signaling. AREc32 ARE-luciferase reporter (MCF7-derived line), luminescence, 24 h. Potency, µM (highest dose often 46.1 µM), without a hit: top-dose activation, usual class: activators. hit rate 0.31% among 410,000. AID 624171; note: potency is the fitted concentration of half-maximal effect; % of control where 0% means no effect; nearly all actives have a fitted effect of over 65% in size
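ARE activation measured as luciferase luminescence (Steady-Glo, 30 min RT) in AREc32_Fluc cells after 24 hr compound exposure at 37 deg C, 5% CO2; cells seeded overnight at 1000/well in OPTI-MEM, 5% FBS.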
A549 tox: A549 cytotoxicity, counter-screen for Nrf2 inhibitors; AID 504648; A549 ARE-Fluc cells, CellTiter-Fluor viability, 18-24 h; hit rate 0.16% among 390,000; Potency, µM (highest dose often 46 µM), for the others: at the top dose activity change, negative = cytotoxicity, usual class: inhibitors; note: potency is the fitted concentration of half-maximal effect; % is set by controls: 0 for no effect and ±100 for the full control effect
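A549 ARE-Fluc cells in 5% FBS OPTI-MEM, 5000 cells/well, rested 2 h then exposed to compounds in concentration-response for 18-24 h at 37 °C. Viability by CellTiter-Fluor fluorescence (Ex 405/Em 525) after 30 min; luciferase luminescence (BugLite, 15 min, RT) read afterwards.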
The depositor's hits bear a star; ? = inconclusive; nt = not tested or not shown; [ ] = dose if it differs, or a comment. Unless noted, calls come from the whole dose curve; as a rule, active = well fitted curve in the direction sought with a large enough effect; inconclusive = small, poorly fitted or top-dose-only effect, or another doubt; inactive = no such curve, though single readings can be large; an effect the other way counts as inactive or inconclusive.

Letters – A = Nrf2 block; B = ClpP mod; C = miR-21 reporter; D = IL2 activator; E = Nrf2 activator; F = A549 tox
> CCOc1ccc(Nc2nnc(-n3nc(C)cc3C)c3ccccc23)cc1
  A = 16%; B = 0%; C = -19%; D = nt; E = 1%; F = 8%

> CCOC(=O)C1CCN(C(=O)Nc2ccc3nc(C)c(C)nc3c2)CC1
  A = 3%; B = 13µM*; C = -4%; D = 0; E = 0%; F = -5%

> CCOC(=O)C1CCN(C(=O)Nc2ccc3oc(C)nc3c2)CC1
  A = 5%; B = 1%; C = -10%; D = 1; E = 0%; F = -2%

> CCOC(=O)c1oc2c(C)c(O)ccc2c(=O)c1-c1nncn1-c1ccccc1
  A = ?; B = -2%; C = -7%; D = -2; E = 0%; F = 1%

> CCOC(=O)c1oc2c(O)c(O)ccc2c(=O)c1-c1nncn1-c1ccccc1
  A = nt; B = 22µM*; C = 0%; D = 0; E = -1%; F = -16%

> Cc1ccc(S(=O)(=O)C(CNC(=O)C(=O)NCCc2ccccc2)c2cccs2)cc1 (centres undefined)
  A = nt; B = -6%; C = -9%; D = nt; E = 3%; F = 13%

> CC1(C)CC(=O)c2cc(C(=O)Nc3cccc4ccccc34)c(=O)[nH]c2C1
  A = nt; B = -1%; C = nt; D = nt; E = nt; F = nt

> CCN(CC)S(=O)(=O)c1nnc(NC(=O)COc2ccc(Cl)cc2)s1
  A = 4.1µM*; B = -1%; C = -72%; D = nt; E = 0%; F = 0%

> Cc1cccc(Nc2c3c(nc4nncn24)CCC3)c1C
  A = -7%; B = -1%; C = -7%; D = nt; E = 1%; F = -6%

> O=C(CCCN1C(=O)/C(=C/c2ccccc2Cl)SC1=S)Nc1ccccn1
  A = 21µM*; B = -2%; C = ?; D = 3; E = 1%; F = -23%

> O=C(CCN1C(=O)/C(=C/c2ccccc2Cl)SC1=S)Nc1ccccn1
  A = 16%; B = -1%; C = 0%; D = 1; E = 4%; F = 4%

> O=C1/C(=C/c2ccccc2Cl)SC(=S)N1CCCC(=O)N(CCO)c1ccccc1
  A = 16µM*; B = 0%; C = 21%; D = -2; E = 4%; F = -12%

> CCOc1ccc(-c2c(C)nn3c(C)c(C(=O)NC(C)c4ccccc4)cnc23)cc1OCC (centres undefined)
  A = ?; B = -4%; C = 5%; D = nt; E = 0%; F = 3%

> Nc1nc2ccccc2n1/N=C/c1ccc([N+](=O)[O-])s1
  A = 15µM*; B = -1%; C = 20%; D = -2; E = 6%; F = ?

> Nc1nc2ccccc2n1/N=C/c1cccnc1
  A = ?; B = 0%; C = nt; D = 0; E = 15%; F = -2%

> Cc1cccc(/C=C/C(=O)c2cc(Br)ccc(=O)c2O)c1
  A = ?; B = 1%; C = ?; D = -1; E = 22µM*; F = ?

> O=C(C=Cc1ccccc1)c1cc(Br)ccc1O
  A = ?; B = 0%; C = nt; D = -1; E = ?; F = 0%

> CCOc1ccc(C(=O)/C=C/c2ccc(OC)c(OC)c2)cc1
  A = ?; B = nt; C = 3%; D = 0; E = ?; F = -13%

> CCc1ccc(/C=C/C(=O)c2cc(Br)ccc(=O)c2O)cc1
  A = 7.3µM*; B = -2%; C = 23%; D = 0; E = ?; F = ?

> CCOc1ccc(/C=C/C(=O)c2cc(Br)ccc(=O)c2O)cc1
  A = 16µM*; B = 1%; C = ?; D = -2; E = 21%; F = -29%

An excerpt of these results, as labelled records.
Cc1cccc(/C=C/C(=O)c2cc(Br)ccc(=O)c2O)c1
  Nrf2 block = ?	ClpP mod = 1%	miR-21 reporter = ?	IL2 activator = -1	Nrf2 activator = 22µM*	A549 tox = ?

CCc1ccc(/C=C/C(=O)c2cc(Br)ccc(=O)c2O)cc1
  Nrf2 block = 7.3µM*	ClpP mod = -2%	miR-21 reporter = 23%	IL2 activator = 0	Nrf2 activator = ?	A549 tox = ?

O=C(CCN1C(=O)/C(=C/c2ccccc2Cl)SC1=S)Nc1ccccn1
  Nrf2 block = 16%	ClpP mod = -1%	miR-21 reporter = 0%	IL2 activator = 1	Nrf2 activator = 4%	A549 tox = 4%

O=C(C=Cc1ccccc1)c1cc(Br)ccc1O
  Nrf2 block = ?	ClpP mod = 0%	miR-21 reporter = nt	IL2 activator = -1	Nrf2 activator = ?	A549 tox = 0%

Following part
Letters – A = Nrf2 block; B = ClpP mod; C = miR-21 reporter; D = IL2 activator; E = Nrf2 activator; F = A549 tox
> CCCn1c2ccccc2c2cnn(CC(=O)NCC3CCN(Cc4ccccc4C)CC3)c(=O)c21
  A = ?; B = ?; C = 5%; D = nt; E = 0%; F = -17%

> Cc1cc(C)c(NC2=NCC(=O)N2C2CCCCC2)c(C)c1
  A = 0%; B = 1%; C = -9%; D = -2; E = -1%; F = 2%

> O=C1CN=C(Nc2cccc(C(F)(F)F)c2)N1C1CCCC1
  A = 15µM*; B = 1%; C = -9%; D = 1; E = -1%; F = -27%

> N#Cc1nc(COc2ccccc2)oc1N1CCN(Cc2ccccc2)CC1
  A = 5%; B = 0%; C = -3%; D = 0; E = -1%; F = -3%

> N#Cc1nc(-c2cccs2)oc1N1CCN(Cc2ccccc2)CC1
  A = -26%; B = 25µM*; C = -13%; D = -2; E = 3%; F = -2%

> N#Cc1nc(-c2ccco2)oc1N1CCN(C(c2ccccc2)c2ccccc2)CC1
  A = -12%; B = 6.3µM*; C = -7%; D = -3; E = 0%; F = 10%

> N#Cc1nc(-c2ccco2)oc1N1CCc2ccccc2C1
  A = ?; B = 14µM*; C = -35%; D = 2; E = 5%; F = -12%

> Cc1cccc(NC(=O)c2cnc3sc(N4CCCC4)nn3c2=O)c1C
  A = ?; B = -8%; C = 1%; D = nt; E = 0%; F = 4%

> COc1ccc(CCNC(=O)CN(c2ccccc2)S(=O)(=O)N(C)C)cc1OC
  A = -11%; B = -2%; C = 0%; D = nt; E = 0%; F = -1%

> CCOC(=O)Cn1c(=O)n(-c2ccc(Cl)cc2)c2nc(-c3ccc(Cl)cc3)nc(C(N)=O)c21
  A = nt; B = ?; C = -1%; D = nt; E = 1%; F = -10%

> O=C(CCl)N(C1CCCC1)C1CCS(=O)(=O)C1 (centres undefined)
  A = 21µM*; B = nt; C = ?; D = -5; E = 29%; F = -9%

> CC(=O)c1ccc(OCC(=O)N(C2CCCCC2)C2CCS(=O)(=O)C2)cc1 (centres undefined)
  A = -1%; B = 0%; C = nt; D = 0; E = -1%; F = -11%

> COC(=O)C1=CNC=C(C(=O)OC)C1c1ccc(C(=O)OC)cc1
  A = 0%; B = 28µM*; C = -7%; D = 0; E = 6%; F = 2%

> O=C(CSC1=Nc2ccccc2N=C(c2ccc(F)cc2)C1)NCc1ccccc1
  A = nt; B = -2%; C = -7%; D = nt; E = 10%; F = 8%

> S=C(NCC1(c2ccccc2)CCCC1)Nc1ccccc1
  A = 16µM*; B = 0%; C = 19%; D = -3; E = 0%; F = -7%

> Cc1nn(Cc2ccc(Cl)cc2Cl)c(C)c1NC(=O)NC12CC3CC(CC(C3)C1)C2
  A = 21µM*; B = 0%; C = 12%; D = 0; E = -1%; F = -12%

> Cc1nn(Cc2ccc(Cl)cc2Cl)c(C)c1NC(=O)c1sc2ccccc2c1Cl
  A = -22%; B = 0%; C = -2%; D = 0; E = 0%; F = -9%

> CC(=O)n1c2ccccc2c2ccccc21
  A = 7%; B = 1%; C = 0%; D = 2; E = -1%; F = 2%

> CC(=O)n1c(C=Nc2ccc(Cl)cc2)c(O)c2ccccc21
  A = 18%; B = nt; C = -18%; D = 84*; E = ?; F = -3%

> O=C(Nc1ccc(Cl)c(Cl)c1)Nc1nnc(CSc2ccccc2)s1
  A = 7.3µM*; B = -2%; C = -4%; D = 3; E = 2%; F = ?

> O=C(Nc1ccccc1)Nc1nnc(CSCc2ccccc2Cl)s1
  A = ?; B = -1%; C = -6%; D = 1; E = 0%[9.22 µM]; F = -2%

> CC(C)CCNC(=O)c1ccc2nc(Cc3ccccc3)oc2c1
  A = nt; B = -2%; C = -13%; D = nt; E = 1%; F = -3%

> CCN(CC)c1ccc(NC(=O)C2CCN(c3nnc(-n4cccc4)s3)CC2)c(C)c1
  A = -2%; B = 0%; C = 6%; D = nt; E = 1%; F = 1%

> COc1ccc(-c2nnc3c4ccccc4c(-c4ccccc4)nn23)cc1
  A = 5%; B = -3%; C = -3%; D = nt; E = 0%; F = -2%

> CC(=O)Nc1ccc(C(=O)OCC(=O)c2ccc(C)c([N+](=O)[O-])c2)cc1
  A = -17%; B = 1%; C = -4%; D = 0; E = 0%; F = 2%

> CCC(=O)Nc1ccc(C(=O)OCC(=O)c2ccc(C)c([N+](=O)[O-])c2)cc1
  A = 7.3µM*; B = -1%; C = -7%; D = -2; E = 0%; F = nt

Bioassay records (PubChem)
